Measurements published in patent US8324225B2, “Pyrrolopyrimidine compounds and their uses” (Novartis AG, priority 2006, dated 2012).

Chains of the proteins cited; added tags and fusions are not shown.
UniProt P06493, whole entry: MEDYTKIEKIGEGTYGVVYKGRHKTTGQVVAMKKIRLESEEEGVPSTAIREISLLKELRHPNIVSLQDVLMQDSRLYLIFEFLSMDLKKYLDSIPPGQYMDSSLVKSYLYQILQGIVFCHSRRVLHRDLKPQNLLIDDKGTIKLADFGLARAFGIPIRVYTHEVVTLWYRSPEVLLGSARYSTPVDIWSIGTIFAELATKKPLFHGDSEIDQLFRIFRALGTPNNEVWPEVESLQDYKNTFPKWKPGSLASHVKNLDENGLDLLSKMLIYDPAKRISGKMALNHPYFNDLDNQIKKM
UniProt P11802, whole entry: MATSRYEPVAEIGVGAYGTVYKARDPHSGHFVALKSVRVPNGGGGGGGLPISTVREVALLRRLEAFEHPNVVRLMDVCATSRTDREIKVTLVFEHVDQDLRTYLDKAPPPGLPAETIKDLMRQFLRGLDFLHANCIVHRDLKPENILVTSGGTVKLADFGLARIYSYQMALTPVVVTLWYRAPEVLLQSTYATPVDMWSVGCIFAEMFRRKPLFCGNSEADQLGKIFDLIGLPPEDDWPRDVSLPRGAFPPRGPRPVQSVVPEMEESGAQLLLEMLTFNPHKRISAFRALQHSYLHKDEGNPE
UniProt P14635, whole entry partner: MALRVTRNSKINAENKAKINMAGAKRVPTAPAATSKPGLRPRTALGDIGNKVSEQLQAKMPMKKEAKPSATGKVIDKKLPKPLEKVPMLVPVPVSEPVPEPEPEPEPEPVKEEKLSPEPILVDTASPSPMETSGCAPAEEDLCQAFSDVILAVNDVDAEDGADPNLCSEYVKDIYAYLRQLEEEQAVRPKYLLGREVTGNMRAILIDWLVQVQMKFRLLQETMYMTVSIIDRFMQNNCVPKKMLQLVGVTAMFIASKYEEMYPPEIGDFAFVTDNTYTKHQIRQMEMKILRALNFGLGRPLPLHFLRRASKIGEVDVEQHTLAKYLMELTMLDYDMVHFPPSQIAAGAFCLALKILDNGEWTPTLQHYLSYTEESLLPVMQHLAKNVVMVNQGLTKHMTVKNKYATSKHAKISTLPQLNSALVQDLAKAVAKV
UniProt P24385, whole entry partner: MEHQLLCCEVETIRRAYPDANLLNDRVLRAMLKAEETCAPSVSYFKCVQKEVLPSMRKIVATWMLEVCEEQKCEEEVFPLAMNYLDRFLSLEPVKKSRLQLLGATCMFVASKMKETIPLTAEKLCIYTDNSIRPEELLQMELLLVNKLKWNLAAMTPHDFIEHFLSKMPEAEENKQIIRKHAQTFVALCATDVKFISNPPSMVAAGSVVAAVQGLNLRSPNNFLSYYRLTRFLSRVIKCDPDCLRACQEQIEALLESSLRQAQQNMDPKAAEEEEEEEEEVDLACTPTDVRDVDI

Key:
hCDK1/B = hCDK1/B (Homo sapiens, UniProt P06493); assay: hCDK1/B; format: biochemical; details: read-out: hCDK1/B/IC50 [umol l − 1]; Table E
[1] = target: CDK2/Cyclin-A kinase complex (Homo sapiens, UniProt P24941); assay: CDK2 IMAP fluorescence polarization assay; details: read-out: CDK2cyA IMAP/IC50 [umol l − 1]; Table E
Description: In order to test the CDK2 activity of the compounds of the invention, the CDK2 assay is a fluorescence polarization assay, where the enzyme is a purified active CDK2/Cyclin-A kinase complex and the substrate is a synthesized peptide derived from Histone H1. This assay utilizes the IMAP technology from Molecular Devices. The active CDK2/Cyclin-A complex phosphorylates the peptide substrate, which is conjugated with the TAMRA tag. The phosphorylated site is then recognized by a metal containing molecule that interacts with the TAMRA tag to induce a high fluorescence polarization. The compounds that inhibit the CDK2 kinase activity would inhibit the fluorescence output of the assay.

[2] = target: CDK4/Cyclin-D1 kinase complex (Homo sapiens, UniProt P11802); assay: CDK4 ELISA based assay, Rb phosphorylation at Serine780; details: read-out: CDK4 ELISA assay IC50 [umol l−]; Table E

SMILES	IC50 (hCDK1/B)	IC50 [1]	IC50 [2]
CCC(CC)n1c(C(=O)Nc2ccccc2)cc2cnc(Nc3ccc(N4CCNCC4)cc3)nc21	< 1 µM	–	–
Cc1nnc(-c2c(C)c3cnc(Nc4ccc(N5CCNCC5)cn4)nc3n2C2CCCC2)o1	–	> 10 µM	–
CCC(CC)n1ccc2cnc(Nc3ccc(N4CCN(C(C)=O)CC4)cc3)nc21	–	< 1 µM	< 10 µM

Now from value to compound:

IC50 (hCDK1/B)	IC50 [1]	IC50 [2]	SMILES
< 10 µM	> 15 µM	–	Cc1c(-c2cnco2)n(C2CCCC2)c2nc(Nc3ccc(N4CCNCC4)cn3)ncc12 [399C]
< 10 µM	–	–	Cc1c(-c2cnco2)n(C2CCCC2)c2nc(Nc3ccc(N4CCNCC4)cn3)ncc12 [399A]
–	< 10 µM	–	Cc1cn(C2CCC(O)C2)c2nc(Nc3ccc(CN4CCOCC4)cc3)ncc12 (centres unmarked)
